The values below come from publication PMC2811323 (The Journal of neuroscience : the official journal of the …, 2009).

By UniProt entry, the sequences of proteins in these tests, tags left out. Where a name states a change or a piece, a line headed by the entry shows the natural chain unless it says otherwise.
UniProt P08482: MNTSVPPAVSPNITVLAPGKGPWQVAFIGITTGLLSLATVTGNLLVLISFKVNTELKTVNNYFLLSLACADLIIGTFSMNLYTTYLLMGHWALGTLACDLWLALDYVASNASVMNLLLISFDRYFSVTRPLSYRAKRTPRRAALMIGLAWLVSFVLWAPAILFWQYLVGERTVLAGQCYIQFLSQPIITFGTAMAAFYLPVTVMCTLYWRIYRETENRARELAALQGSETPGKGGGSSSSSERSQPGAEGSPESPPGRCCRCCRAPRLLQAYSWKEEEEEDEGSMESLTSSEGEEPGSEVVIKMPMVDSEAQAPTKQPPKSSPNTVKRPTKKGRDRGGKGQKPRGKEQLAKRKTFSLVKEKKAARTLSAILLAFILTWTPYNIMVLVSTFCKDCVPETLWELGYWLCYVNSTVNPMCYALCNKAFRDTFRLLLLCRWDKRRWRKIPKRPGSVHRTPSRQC

Values joined by “and” are separate entries in the source; they are usually repeats but may differ in a detail not shown here. Equal values may be shown once.

One test concerns human M3. The following applies: 3 μM BQCA, hM3.
In test [1] the target is T1, rat M1 receptor (Rattus norvegicus, UniProt P08482). Conditions: 1 μM.
Another test has as its system rat M4. The following applies: 3 μM BQCA, rM4-Gqi5.
The next test concerns human M5. Conditions: 3 μM BQCA, hM5.
A further test concerns human M2. Conditions: 3 μM BQCA, hM2-Gqi5.
For the next test, the target named is rM1 receptor (Rattus norvegicus, UniProt P08482).
Test [2] deals with T1, rat M1 receptor. The experiment in a line: cell-based.
In test [3] the test system is mPFC layer V neurons, M1 receptor KO mice.

Broadly, the EC50 is the concentration giving half of the maximal effect. Low values mean an effect from little substance, high ones a need for much substance. Regarding `COc1ccc(Cn2cc(C(=O)[O-])c(=O)c3ccccc32)cc1.[Na+]` [BQCA, Sodium 1-(4-methoxybenzyl)-4-oxo-1,4-dihydroquinoline-3-carboxylate], the “Effect on the ACh concentration response curve” value in the test with human M3, with rat M4, in the test on human M5 and in the test on human M2 was “no effect” in each case. Also, the “Effect on the response to an EC20 concentration of ACh” value on rat M1 receptor [1] (compared to vehicle) is on record as “greatly enhances”. The “Effect on calcium when added alone” value on rat M1 receptor [1] (no ACh) is “no effect”. The “Displacement of [3H]-NMS binding” value at rM1 receptor is reported as “no displacement”. It took 267 ± 31 nM to reach a half-maximal effect on rat M1 receptor [2] (EC50).

For the molecule `C[N+](C)(C)CCOC(N)=O` [CCh, carbachol], in test [3], the sEPSC amplitude is 79.4 ± 14.9% and 80.7 ± 5.2%; the sEPSC frequency is 186.3 ± 187.4% and 271.7 ± 310.4%.
